What was measured:
[1] = target: T1, KOR (Homo sapiens, UniProt P41145); experiment: [35S]GTP-γ-S binding assay, hKOR-CHO cells; format: biochemical; details: stimulation of [35S]GTP-γ-S binding; no stim = no stimulation
T1 construct: expressed in transfected cells; host or cells: CHO (hKOR-CHO)

Protein sequences, listed by entry. Tags and fused reporters are not part of them. Lines headed by an entry give the natural chain unless they say otherwise; changes in a name come on top.
UniProt P41145: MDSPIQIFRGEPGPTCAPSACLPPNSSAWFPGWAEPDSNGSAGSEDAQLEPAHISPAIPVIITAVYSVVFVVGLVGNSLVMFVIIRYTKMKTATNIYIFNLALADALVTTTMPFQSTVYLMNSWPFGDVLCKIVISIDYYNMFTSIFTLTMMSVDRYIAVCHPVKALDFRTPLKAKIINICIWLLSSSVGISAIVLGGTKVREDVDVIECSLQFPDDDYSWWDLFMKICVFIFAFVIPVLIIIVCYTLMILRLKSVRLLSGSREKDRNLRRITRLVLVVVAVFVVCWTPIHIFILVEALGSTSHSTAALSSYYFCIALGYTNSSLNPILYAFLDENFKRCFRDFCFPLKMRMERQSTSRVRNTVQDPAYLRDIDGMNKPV

[2] = target: T1, KOR; experiment: biochemical; format: binding

Oc1ccc2c3c1OC1c4ncc(-c5ccc(Cl)cc5)cc4CC4(OCCCc5ccccc5)C(C2)N(CC2CC2)CCC314 (stereo not drawn) [Compound 17d, 5′-(4-Chlorophenyl)-17-(cyclopropylmethyl)-6,7-didehydro-4,5α-epoxy-3-hydroxy-14-(3-phenylpropoxy)pyrido[2′,3′:6,7]morphinan]
agonist activity KOR EC50 [1]: no stim
Ki [2]: 1.82 ± 0.11 nM

— patent US9163030B2 (priority 2012, dated 2015)
